Experimental data from patent publication EP0513703A2, “Carbamate esters of eseroline having anticholinesterase activity, a process for their preparation and relative pharmaceutical compositions containing them as the active principle” (priority 1991, dated 1992).
Several values for one entry are separate records, joined by “and”; a condition that tells them apart may be missing. Equal values may be shown once.

Experiments:
Parameters in all cases: species or system Wistar male rats
Conditions in all cases: rat, 20 minutes after oral administration
[1] = system: acetylcholinesterase (AchE); assay: In vivo anticholinesterase activity in brain and serum, Ellman method (class A derivatives)
acetylcholinesterase = assay: In vivo anticholinesterase activity in brain and serum (class E derivatives)
[2] = system: acetylcholinesterase (AchE); assay: In vivo anticholinesterase activity in brain and serum, Ellman method (class D derivatives)
[3] = 3.5 mg/kg/os, listed as MGS 101, 3.5 mg/kg
[4] = 0.4 mg/kg/os, listed as PHISOSTIGMINE, 0.4 mg/kg

CC[C@H](C)[C@H](NC(=O)Oc1ccc2c(c1)[C@]1(C)CCN(C)[C@@H]1N2C)C(=O)O [MGS101]
INHIBITION % OF ACETYLCHOLINESTERASE AVERAGE VALUE ± EXPERIMENTAL ERROR brain ([1]; 1.5 mg/kg/os): 20.31 ± 3.12% | INHIBITION % OF ACETYLCHOLINESTERASE AVERAGE VALUE ± EXPERIMENTAL ERROR serum ([1]; 1.5 mg/kg/os): 17.4 ± 2.14% | INHIBITION % OF ACETYLCHOLINESTERASE AVERAGE VALUE ± EXPERIMENTAL ERROR brain ([1]; 2.5 mg/kg/os): 41.60 ± 1.64% | INHIBITION % OF ACETYLCHOLINESTERASE AVERAGE VALUE ± EXPERIMENTAL ERROR serum ([1]; 2.5 mg/kg/os): 37.31 ± 4.86% | INHIBITION % OF ACETYLCHOLINESTERASE AVERAGE VALUE ± EXPERIMENTAL ERROR brain [1, 3]: 53.8 ± 11.25% and 53.8 ± 1.64% | INHIBITION % OF ACETYLCHOLINESTERASE AVERAGE VALUE ± EXPERIMENTAL ERROR serum [1, 3]: 60.44 ± 7.38% and 60.44 ±4.86% | INHIBITION % OF ACETYLCHOLINESTERASE AVERAGE VALUE ± EXPERIMENTAL ERROR brain ([1]; 4.5 mg/kg/os): 76.42 ± 9.38% | INHIBITION % OF ACETYLCHOLINESTERASE AVERAGE VALUE ± EXPERIMENTAL ERROR serum ([1]; 4.5 mg/kg/os): 79.31 ± 3.81%

CN1CC[C@@]2(C)c3cc(OC(=O)NCCCCCCCCNC(=O)Oc4ccc5c(c4)[C@]4(C)CCN(C)[C@@H]4N5C)ccc3N(C)[C@@H]12
INHIBITION % OF ACETYLCHOLINESTERASE AVERAGE VALUE ± EXPERIMENTAL ERROR brain (acetylcholinesterase; 0.1 mg/kg/os): 16.14 ± 9.43% | INHIBITION % OF ACETYLCHOLINESTERASE AVERAGE VALUE ± EXPERIMENTAL ERROR serum (acetylcholinesterase; 0.1 mg/kg/os): 21.42 ± 3.57% | INHIBITION % OF ACETYLCHOLINESTERASE AVERAGE VALUE ± EXPERIMENTAL ERROR brain (acetylcholinesterase; 0.15 mg/kg/os): 38.52 ± 6.41% | INHIBITION % OF ACETYLCHOLINESTERASE AVERAGE VALUE ± EXPERIMENTAL ERROR serum (acetylcholinesterase; 0.15 mg/kg/os): 27.34 ± 6.22% | INHIBITION % OF ACETYLCHOLINESTERASE AVERAGE VALUE ± EXPERIMENTAL ERROR brain (acetylcholinesterase; 0.2 mg/kg/os): 56.12 ± 7.21% | INHIBITION % OF ACETYLCHOLINESTERASE AVERAGE VALUE ± EXPERIMENTAL ERROR serum (acetylcholinesterase; 0.2 mg/kg/os): 52.36 ± 11.3% | INHIBITION % OF ACETYLCHOLINESTERASE AVERAGE VALUE ± EXPERIMENTAL ERROR brain (acetylcholinesterase; 0.25 mg/kg/os): 83.40 ± 12.62% | INHIBITION % OF ACETYLCHOLINESTERASE AVERAGE VALUE ± EXPERIMENTAL ERROR serum (acetylcholinesterase; 0.25 mg/kg/os): 76.81 ± 8.38%

CNC(=O)Oc1ccc2c(c1)[C@]1(C)CCN(C)[C@@H]1N2C [Physostigmine, physostigmine, reference compound]
INHIBITION % OF ACETYLCHOLINESTERASE AVERAGE VALUE ± EXPERIMENTAL ERROR brain (acetylcholinesterase; 0.2 mg/kg/os): 11.31 ± 6.36% | INHIBITION % OF ACETYLCHOLINESTERASE AVERAGE VALUE ± EXPERIMENTAL ERROR serum (acetylcholinesterase; 0.2 mg/kg/os): 14.63 ± 2.33% | INHIBITION % OF ACETYLCHOLINESTERASE AVERAGE VALUE ± EXPERIMENTAL ERROR brain (acetylcholinesterase; 0.3 mg/kg/os): 33.67 ± 2.44% | INHIBITION % OF ACETYLCHOLINESTERASE AVERAGE VALUE ± EXPERIMENTAL ERROR serum (acetylcholinesterase; 0.3 mg/kg/os): 29.4 ± 3.41% | INHIBITION % OF ACETYLCHOLINESTERASE AVERAGE VALUE ± EXPERIMENTAL ERROR brain (acetylcholinesterase; 0.4 mg/kg/os): 54.23 ± 8.17% | INHIBITION % OF ACETYLCHOLINESTERASE AVERAGE VALUE ± EXPERIMENTAL ERROR serum (acetylcholinesterase; 0.4 mg/kg/os): 59.4 ± 7.56% | INHIBITION % OF ACETYLCHOLINESTERASE AVERAGE VALUE ± EXPERIMENTAL ERROR brain ([1]; 0.2 mg/kg/os): 16.72 ± 1.26% | INHIBITION % OF ACETYLCHOLINESTERASE AVERAGE VALUE ± EXPERIMENTAL ERROR serum ([1]; 0.2 mg/kg/os): 10.56 ± 1.45% | INHIBITION % OF ACETYLCHOLINESTERASE AVERAGE VALUE ± EXPERIMENTAL ERROR brain ([1]; 0.3 mg/kg/os): 38.17 ± 9.21% | INHIBITION % OF ACETYLCHOLINESTERASE AVERAGE VALUE ± EXPERIMENTAL ERROR serum ([1]; 0.3 mg/kg/os): 33.32 ± 6.43% | INHIBITION % OF ACETYLCHOLINESTERASE AVERAGE VALUE ± EXPERIMENTAL ERROR brain [1, 4]: 52.30 ± 8.12% and 52.30 ± 9.12% | INHIBITION % OF ACETYLCHOLINESTERASE AVERAGE VALUE ± EXPERIMENTAL ERROR serum [1, 4]: 55.21 ± 11.95% and 55.11 ± 11.95% | INHIBITION % OF ACETYLCHOLINESTERASE AVERAGE VALUE ± EXPERIMENTAL ERROR brain ([2]; 0.2 mg/kg/os): 16.23 ± 3.41% | INHIBITION % OF ACETYLCHOLINESTERASE AVERAGE VALUE ± EXPERIMENTAL ERROR serum ([2]; 0.2 mg/kg/os): 17.12 ± 2.36% | INHIBITION % OF ACETYLCHOLINESTERASE AVERAGE VALUE ± EXPERIMENTAL ERROR brain ([2]; 0.3 mg/kg/os): 29.22 ± 4.36% | INHIBITION % OF ACETYLCHOLINESTERASE AVERAGE VALUE ± EXPERIMENTAL ERROR serum ([2]; 0.3 mg/kg/os): 34.78 ± 6.83% | INHIBITION % OF ACETYLCHOLINESTERASE AVERAGE VALUE ± EXPERIMENTAL ERROR brain ([2]; 0.4 mg/kg/os): 56.31 ± 7.35% | INHIBITION % OF ACETYLCHOLINESTERASE AVERAGE VALUE ± EXPERIMENTAL ERROR serum ([2]; 0.4 mg/kg/os): 51.28 ± 5.49%

CNCCCCCCCNC(=O)Oc1ccc2c(c1)[C@]1(C)CCN(C)[C@@H]1N2C [MGF001, (3a S-cis) - 1,2,3,3a,8,8a hexahydro - 1,3a,8 - trimethyl pyrrol [2,3-b]-indol-5-ol-N-methyl-aminoheptyl carbamate ester]
INHIBITION % OF ACETYLCHOLINESTERASE AVERAGE VALUE ± EXPERIMENTAL ERROR brain ([2]; 1 mg/kg/os): 14.48 ± 4.25% | INHIBITION % OF ACETYLCHOLINESTERASE AVERAGE VALUE ± EXPERIMENTAL ERROR serum ([2]; 1 mg/kg/os): 19.23 ± 2.28% | INHIBITION % OF ACETYLCHOLINESTERASE AVERAGE VALUE ± EXPERIMENTAL ERROR brain ([2]; 1.5 mg/kg/os): 31.11 ± 3.41% | INHIBITION % OF ACETYLCHOLINESTERASE AVERAGE VALUE ± EXPERIMENTAL ERROR serum ([2]; 1.5 mg/kg/os): 36.58 ± 1.53% | INHIBITION % OF ACETYLCHOLINESTERASE AVERAGE VALUE ± EXPERIMENTAL ERROR serum ([2]; 2 mg/kg/os): 53.31 ± 7.47% | INHIBITION % OF ACETYLCHOLINESTERASE AVERAGE VALUE ± EXPERIMENTAL ERROR brain ([2]; 2 mg/kg/os, listed as MGF 001, 2 mg/kg): 59.3 ± 11.20%
